Test [1] is filed under the species Homo sapiens. Briefly: Selectivity ratio of IC50 for human 5-LOX to IC50 for N-terminal His6-tagged human 12/15-LOX.
The species named for test [2] is Homo sapiens. Briefly: Selectivity ratio of IC50 for N-terminal His6-tagged human 12-LOX to IC50 for N-terminal His6-tagged human 12/15-LOX.

Molecules are shown by their SMILES.

With `Cc1ccc(O)c(-c2cc(-c3ccccc3C)[nH]n2)c1`, the Ratio IC50 was more than 30 in the test listed under Homo sapiens [1] and 15 in the test filed under Homo sapiens [2].

Values taken from ChEMBL document CHEMBL3763110, “A potent and selective inhibitor targeting human and murine 12/15-LOX” (Bioorg Med Chem, 2016).
